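Interpolation was linear, between the two tested concentrations surrounding the appropriate level; five concentrations were tested over 48 hours in 96-well plates. Here, GI50 denotes the concentration required for 50% inhibition of growth. TGI: total growth inhibition.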
Key:
Assay in all cases: NCI tumour cell line growth inhibition, 48 h
[1] = tested on: K-562 leukemia
[2] = tested on: NCI-H460 lung
[3] = tested on: RPMI-8226 leukemia
[4] = tested on: MALME-3M melanoma
[5] = tested on: SF-295 CNS
[6] = tested on: TK-10 renal
[7] = tested on: SNB-78 CNS
[8] = tested on: UACC-62 melanoma
[9] = tested on: SK-MEL-2 melanoma
[10] = tested on: HCC-2998 colon
[11] = tested on: NCI-H322M lung
[12] = tested on: OVCAR-5 ovarian
[13] = tested on: NCI-H226 lung
[14] = tested on: LOX IMVI melanoma
[15] = tested on: M14 melanoma
[16] = tested on: SW-620 colon
[17] = tested on: MOLT-4 leukemia
[18] = tested on: UO-31 renal
[19] = tested on: LXFL 529 NSCLC
[20] = tested on: NCI-H23 lung
[21] = tested on: SK-MEL-28 melanoma
[22] = tested on: UACC-257 melanoma
[23] = tested on: OVCAR-4 ovarian
[24] = tested on: HOP-18 NSCLC
[25] = tested on: IGROV1 ovarian
[26] = tested on: A549 NSCLC
[27] = tested on: COLO 205 colon
[28] = tested on: RXF 393 renal
[29] = tested on: SK-MEL-5 melanoma
[30] = tested on: OVCAR-3 ovarian
[31] = tested on: SK-OV-3 ovarian
[32] = tested on: OVCAR-8 ovarian
[33] = tested on: SR leukemia
[34] = tested on: U251 CNS
[35] = tested on: SF-539 CNS
[36] = tested on: CCRF-CEM leukemia
[37] = tested on: EKVX NSCLC
[38] = tested on: HT29 colon
[39] = tested on: DLD-1 colon
[40] = tested on: RXF-631 renal
[41] = tested on: 786-0 renal
[42] = tested on: KM12 colon
[43] = tested on: KM20L2 colon
[44] = tested on: HCT-15 colon
[45] = tested on: M19-MEL melanoma
[46] = tested on: HCT-116 colon
[47] = tested on: CAKI-1 renal
[48] = tested on: XF 498 CNS
[49] = tested on: SN12C renal
[50] = tested on: ACHN renal
[51] = tested on: DMS 114 small cell lung
[52] = tested on: HOP-92 NSCLC
[53] = tested on: SF-268 CNS
[54] = tested on: MDA-MB-231 breast
[55] = tested on: DU-145 prostate
[56] = tested on: T-47D breast
[57] = tested on: MCF7 breast
[58] = tested on: PC-3 prostate
[59] = tested on: HOP-62 NSCLC
[60] = tested on: SNB-75 CNS
[61] = tested on: MDA-MB-435
[62] = tested on: SNB-19 CNS
[63] = tested on: A498 renal
[64] = tested on: BT-549 breast
[65] = tested on: NCI/ADR-RES ovarian
[66] = tested on: HL-60(TB) leukemia

Compound `CC1=CC2OC3CC(OC(=O)/C=C/C=C/C(OCCC4=CC(=O)OC4)C(C)O)C(C)(C2(CO)CC1)C31CO1` (stereo not drawn) has a GI50 [1] of 1.37 µM, a GI50 [2] of 1.63 µM and a GI50 [3] of 1.21 µM. For the same compound, the GI50 [4] was 1.48 µM, the GI50 [5] was 3.48 µM and the GI50 [6] was 3.31 µM. It also gave a GI50 [7] of 4.07 µM, a GI50 [8] of 2.12 µM and a GI50 [9] of 2 µM. For the same compound, the GI50 [10] was 1.8 µM, the GI50 [11] was 8.87 µM and the GI50 [12] was 5.31 µM. The GI50 [13] was 3.28 µM, the GI50 [14] was 1.33 µM and the GI50 [15] was 1.46 µM. For the same compound, the GI50 [16] was 2.53 µM, the GI50 [17] was 0.636 µM and the GI50 [18] was 8.77 µM. The GI50 [19] was 0.647 µM, the GI50 [20] was 1.79 µM and the GI50 [21] was 2 µM. The GI50 [22] was 3.12 µM, the GI50 [23] was 4.04 µM and the GI50 [24] was 15.6 µM. It also gave a GI50 [25] of 1.99 µM, a GI50 [26] of 3.18 µM and a GI50 [27] of 2.1 µM. It also gave a GI50 [28] of 1.8 µM, a GI50 [29] of 0.484 µM and a GI50 [30] of 2.2 µM. The GI50 [31] was 4.02 µM, the GI50 [32] was 3.36 µM and the GI50 [33] was 0.533 µM. For the same compound, the GI50 [34] was 1.7 µM, the GI50 [35] was 1.89 µM and the GI50 [36] was 1.31 µM. It also gave a GI50 [37] of 2.36 µM, a GI50 [38] of 2.27 µM and a GI50 [39] of 2.04 µM. The GI50 [40] was 3.84 µM, the GI50 [41] was 2.11 µM and the GI50 [42] was 2.62 µM. The GI50 [43] was 2.52 µM, the GI50 [44] was 2.51 µM and the GI50 [45] was 1.94 µM. For the same compound, the GI50 [46] was 2.37 µM, the GI50 [47] was 3.25 µM and the GI50 [48] was 1.98 µM. It also gave a GI50 [49] of 3.15 µM, a GI50 [50] of 4.55 µM and a GI50 [51] of 2.32 µM. The GI50 [52] was 1.82 µM and the GI50 [53] was 2.96 µM.

Compound `Nc1ccc(N(CCCl)CCCl)cc1` has a GI50 [1] of 9.89 µM, a TGI [1] of 68.4 µM and a GI50 [2] of 0.671 µM. The TGI [2] was 84.4 µM, the GI50 [54] was 20.8 µM and the TGI [54] was > 100 µM. It also gave a GI50 [3] of 10.1 µM, a TGI [3] of 63.8 µM and a GI50 [4] of 13.5 µM. It also gave a TGI [4] of 36 µM, a GI50 [5] of 2.65 µM and a TGI [5] of 49.5 µM. For the same compound, the GI50 [6] was 21.4 µM, the TGI [6] was 63.3 µM and the GI50 [8] was 5.8 µM. For the same compound, the TGI [8] was 21.9 µM, the GI50 [9] was 17.3 µM and the TGI [9] was 42.8 µM. For the same compound, the GI50 [10] was 13.8 µM, the TGI [10] was 37.1 µM and the GI50 [11] was 40.6 µM. The TGI [11] was > 100 µM, the GI50 [12] was 14.6 µM and the TGI [12] was 51.2 µM. It also gave a GI50 [13] of 9.03 µM, a TGI [13] of 30.2 µM and a GI50 [14] of 2.37 µM. For the same compound, the TGI [14] was 24 µM, the GI50 [55] was 4.12 µM and the TGI [55] was > 100 µM. For the same compound, the GI50 [15] was 7.06 µM, the TGI [15] was 80.9 µM and the GI50 [16] was 5.3 µM. It also gave a TGI [16] of 33.6 µM, a GI50 [56] of 4.5 µM and a TGI [56] of 23.2 µM. For the same compound, the GI50 [17] was 1.05 µM, the TGI [17] was > 100 µM and the GI50 [57] was 0.932 µM. The TGI [57] was 16.4 µM, the GI50 [18] was 3.94 µM and the TGI [18] was 47.4 µM. For the same compound, the GI50 [58] was 13.3 µM, the TGI [58] was > 100 µM and the GI50 [20] was 3.56 µM. For the same compound, the TGI [20] was 49.4 µM, the GI50 [59] was 4.1 µM and the TGI [59] was 34.6 µM. For the same compound, the GI50 [21] was 20.5 µM, the TGI [21] was 65.1 µM and the GI50 [22] was 16.6 µM. For the same compound, the TGI [22] was 93.3 µM, the GI50 [60] was 14.5 µM and the TGI [60] was > 100 µM. For the same compound, the GI50 [23] was 26.7 µM, the TGI [23] was > 100 µM and the GI50 [61] was 12.9 µM. The TGI [61] was 28 µM, the GI50 [25] was 10.2 µM and the TGI [25] was 40.5 µM. The GI50 [26] was 8.1 µM, the TGI [26] was > 100 µM and the GI50 [27] was 13 µM. It also gave a TGI [27] of 40.4 µM, a GI50 [28] of 4.27 µM and a TGI [28] of 20.1 µM. It also gave a GI50 [29] of 13.4 µM, a TGI [29] of 37.1 µM and a GI50 [30] of 10 µM. The TGI [30] was 22.9 µM, the GI50 [31] was 11 µM and the TGI [31] was 55.3 µM. For the same compound, the GI50 [32] was 6.07 µM, the TGI [32] was > 100 µM and the GI50 [33] was 0.417 µM. The TGI [33] was > 100 µM, the GI50 [62] was 9.26 µM and the TGI [62] was > 100 µM. For the same compound, the GI50 [34] was 3.56 µM, the TGI [34] was 58.3 µM and the GI50 [35] was 1.84 µM. The TGI [35] was 18.6 µM, the GI50 [36] was 0.453 µM and the TGI [36] was > 100 µM. It also gave a GI50 [63] of 11.9 µM, a TGI [63] of 30.2 µM and a GI50 [64] of 7.26 µM. For the same compound, the TGI [64] was 35.4 µM, the GI50 [38] was 17.1 µM and the TGI [38] was > 100 µM. The GI50 [41] was 3.87 µM, the TGI [41] was > 100 µM and the GI50 [42] was 17 µM. For the same compound, the TGI [42] was 57.4 µM, the GI50 [44] was 8.94 µM and the TGI [44] was 62.6 µM. The GI50 [46] was 5.81 µM, the TGI [46] was > 100 µM and the GI50 [65] was 5.45 µM. The TGI [65] was > 100 µM, the GI50 [66] was 0.647 µM and the TGI [66] was 19.8 µM. For the same compound, the GI50 [47] was 0.439 µM, the TGI [47] was 13.9 µM and the GI50 [49] was 2.77 µM. For the same compound, the TGI [49] was 77.5 µM, the GI50 [50] was 0.554 µM and the TGI [50] was 14.5 µM. It also gave a GI50 [53] of 2.65 µM and a TGI [53] of 44.4 µM.

Reference: PubChem BioAssay (NCI)
